Experimental data taken from patent EP4840852A1, “DIPHENYLTRIAZINE COMPOUND, PREPARATION METHOD THEREFOR AND USE THEREOF” (dated 2026).
Values joined by “and” are separate entries in the source; they are usually repeats but may differ in a detail not shown here. Equal values may be shown once. Marks after values point to notes of the source that are not given here.

By UniProt entry, the sequences of proteins in these tests, tags left out.
UniProt P43119, whole entry: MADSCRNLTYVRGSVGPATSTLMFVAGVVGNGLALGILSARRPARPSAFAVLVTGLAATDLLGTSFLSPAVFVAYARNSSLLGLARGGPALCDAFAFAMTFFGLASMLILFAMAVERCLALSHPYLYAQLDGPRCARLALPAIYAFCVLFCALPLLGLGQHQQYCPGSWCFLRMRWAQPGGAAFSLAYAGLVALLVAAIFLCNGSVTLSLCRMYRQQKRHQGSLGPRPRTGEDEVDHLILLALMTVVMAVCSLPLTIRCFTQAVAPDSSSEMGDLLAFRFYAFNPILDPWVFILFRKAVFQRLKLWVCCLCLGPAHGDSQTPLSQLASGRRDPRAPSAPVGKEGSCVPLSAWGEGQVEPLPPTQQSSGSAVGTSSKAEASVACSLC
UniProt P34995, whole entry: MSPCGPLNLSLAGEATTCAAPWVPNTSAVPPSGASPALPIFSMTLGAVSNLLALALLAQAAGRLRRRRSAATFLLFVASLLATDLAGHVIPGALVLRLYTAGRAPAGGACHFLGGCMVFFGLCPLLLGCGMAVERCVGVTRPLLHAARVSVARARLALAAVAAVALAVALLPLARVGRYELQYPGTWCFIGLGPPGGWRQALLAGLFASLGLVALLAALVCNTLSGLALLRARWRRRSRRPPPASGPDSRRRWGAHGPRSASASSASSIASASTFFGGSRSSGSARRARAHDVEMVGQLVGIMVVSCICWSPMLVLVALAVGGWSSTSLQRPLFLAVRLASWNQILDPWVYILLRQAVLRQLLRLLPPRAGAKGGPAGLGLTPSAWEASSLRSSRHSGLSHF
UniProt P43116, whole entry: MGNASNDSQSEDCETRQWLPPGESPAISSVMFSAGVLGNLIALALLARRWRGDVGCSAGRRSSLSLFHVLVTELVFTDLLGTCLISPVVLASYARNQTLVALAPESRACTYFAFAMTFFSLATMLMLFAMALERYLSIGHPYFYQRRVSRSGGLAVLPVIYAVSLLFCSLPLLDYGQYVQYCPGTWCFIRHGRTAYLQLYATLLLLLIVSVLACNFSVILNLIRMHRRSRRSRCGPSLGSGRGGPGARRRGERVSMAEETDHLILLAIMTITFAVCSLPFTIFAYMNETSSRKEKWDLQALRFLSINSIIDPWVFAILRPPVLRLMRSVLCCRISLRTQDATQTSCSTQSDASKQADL
UniProt P43115, whole entry: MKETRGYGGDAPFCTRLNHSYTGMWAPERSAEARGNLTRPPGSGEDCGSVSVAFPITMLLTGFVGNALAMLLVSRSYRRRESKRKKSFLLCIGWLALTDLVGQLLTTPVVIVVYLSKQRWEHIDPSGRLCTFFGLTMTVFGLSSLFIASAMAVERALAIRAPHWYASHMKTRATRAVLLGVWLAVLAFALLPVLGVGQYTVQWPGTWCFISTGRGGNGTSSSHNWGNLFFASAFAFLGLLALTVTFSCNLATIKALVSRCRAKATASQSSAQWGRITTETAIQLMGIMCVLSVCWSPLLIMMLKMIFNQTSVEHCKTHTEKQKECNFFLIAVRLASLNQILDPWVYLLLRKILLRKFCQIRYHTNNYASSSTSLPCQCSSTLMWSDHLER
UniProt P35408, whole entry: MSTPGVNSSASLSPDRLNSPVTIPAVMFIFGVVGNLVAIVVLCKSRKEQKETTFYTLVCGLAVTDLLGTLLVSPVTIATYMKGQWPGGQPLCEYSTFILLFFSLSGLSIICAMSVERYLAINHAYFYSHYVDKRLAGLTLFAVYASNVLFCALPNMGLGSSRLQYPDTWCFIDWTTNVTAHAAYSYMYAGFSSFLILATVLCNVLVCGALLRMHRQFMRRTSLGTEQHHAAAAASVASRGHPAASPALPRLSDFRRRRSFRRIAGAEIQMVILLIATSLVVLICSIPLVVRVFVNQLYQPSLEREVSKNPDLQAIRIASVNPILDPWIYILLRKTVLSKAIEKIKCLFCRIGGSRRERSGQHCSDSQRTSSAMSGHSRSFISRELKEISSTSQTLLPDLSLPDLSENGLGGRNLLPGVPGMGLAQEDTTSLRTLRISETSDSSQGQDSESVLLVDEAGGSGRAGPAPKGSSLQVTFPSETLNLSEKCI
UniProt Q13258, whole entry: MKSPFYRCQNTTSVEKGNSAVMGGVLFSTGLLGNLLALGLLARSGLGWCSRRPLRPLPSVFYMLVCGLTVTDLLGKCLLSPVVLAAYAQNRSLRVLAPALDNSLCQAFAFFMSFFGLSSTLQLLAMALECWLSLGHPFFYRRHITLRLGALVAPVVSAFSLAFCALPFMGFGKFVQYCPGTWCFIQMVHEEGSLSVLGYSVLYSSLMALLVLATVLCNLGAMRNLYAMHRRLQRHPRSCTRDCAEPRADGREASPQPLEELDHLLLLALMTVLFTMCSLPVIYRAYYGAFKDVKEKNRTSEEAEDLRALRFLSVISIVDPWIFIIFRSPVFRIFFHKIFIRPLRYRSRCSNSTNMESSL
UniProt P43088, whole entry: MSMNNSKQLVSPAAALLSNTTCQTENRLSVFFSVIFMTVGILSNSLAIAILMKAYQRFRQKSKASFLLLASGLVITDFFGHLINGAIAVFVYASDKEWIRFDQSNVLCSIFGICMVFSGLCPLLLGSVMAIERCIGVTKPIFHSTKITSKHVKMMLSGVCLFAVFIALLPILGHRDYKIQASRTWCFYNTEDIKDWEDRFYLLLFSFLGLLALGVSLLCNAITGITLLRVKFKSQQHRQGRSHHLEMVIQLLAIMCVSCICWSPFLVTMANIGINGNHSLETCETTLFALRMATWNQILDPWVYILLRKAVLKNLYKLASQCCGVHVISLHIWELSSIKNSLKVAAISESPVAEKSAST
UniProt P21731, whole entry: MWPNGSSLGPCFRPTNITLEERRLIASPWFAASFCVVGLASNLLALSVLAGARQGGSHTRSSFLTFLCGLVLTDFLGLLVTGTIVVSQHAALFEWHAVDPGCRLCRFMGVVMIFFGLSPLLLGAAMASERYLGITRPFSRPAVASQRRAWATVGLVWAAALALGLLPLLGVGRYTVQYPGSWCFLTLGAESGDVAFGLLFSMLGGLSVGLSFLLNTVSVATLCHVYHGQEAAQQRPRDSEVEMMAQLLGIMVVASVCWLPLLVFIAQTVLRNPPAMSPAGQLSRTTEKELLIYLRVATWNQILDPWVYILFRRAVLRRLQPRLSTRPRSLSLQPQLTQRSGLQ

Tests used:
IP = IP (Homo sapiens, UniProt P43119); assay: Functional activity (HTRF cAMP / HTRF IP1) in cell line stably expressing IP receptor; settings: read-out: absolute EC50; agonistic activation on IP target; initial test concentration 10000 nM
EP1 = EP1 (Homo sapiens, UniProt P34995); assay: Functional activity (HTRF cAMP / HTRF IP1) in cell line stably expressing EP1 receptor; settings: read-out: absolute EC50; agonistic activation on EP1 target; initial test concentration 10000 nM
EP2 = EP2 (Homo sapiens, UniProt P43116); assay: Functional activity (HTRF cAMP / HTRF IP1) in cell line stably expressing EP2 receptor; settings: read-out: absolute EC50; agonistic activation on EP2 target; initial test concentration 10000 nM
EP3 = EP3 (Homo sapiens, UniProt P43115); assay: Functional activity (HTRF cAMP / HTRF IP1) in cell line stably expressing EP3 receptor; settings: read-out: absolute EC50; agonistic activation on EP3 target; initial test concentration 10000 nM
EP4 = EP4 (Homo sapiens, UniProt P35408); assay: Functional activity (HTRF cAMP / HTRF IP1) in cell line stably expressing EP4 receptor; settings: read-out: absolute EC50; agonistic activation on EP4 target; initial test concentration 10000 nM
DP = DP (Homo sapiens, UniProt Q13258); assay: Functional activity (HTRF cAMP / HTRF IP1) in cell line stably expressing DP receptor; settings: read-out: absolute EC50; agonistic activation on DP target; initial test concentration 10000 nM
FP = FP (Homo sapiens, UniProt P43088); assay: Functional activity (HTRF cAMP / HTRF IP1) in cell line stably expressing FP receptor; settings: read-out: absolute EC50; agonistic activation on FP target; initial test concentration 10000 nM
TP = TP (Homo sapiens, UniProt P21731); assay: Functional activity (HTRF cAMP / HTRF IP1) in cell line stably expressing TP receptor; settings: read-out: absolute EC50; agonistic activation on TP target; initial test concentration 10000 nM
[1] = system: Human pulmonary arterial smooth muscle cells (HPASMCs); assay: PDGF-induced proliferation of pulmonary arterial smooth muscle cells (CellTiter-Glo); settings: read-out: IC50 for inhibiting PDGF-induced proliferation of pulmonary arterial smooth muscle cells; 20 ng/mL hPDGF-BB; CTG assay
[2] = system: rat pulmonary artery rings; assay: High-K+-induced tension of isolated pulmonary artery rings; settings: read-out: half-maximal inhibitory concentration (IC50), high-K+-induced vasoconstriction of rat pulmonary arteries; N=5
[3] = system: Monocrotaline (MCT)-Induced Pulmonary Arterial Hypertension Rat Model; assay: Monocrotaline (MCT)-induced pulmonary arterial hypertension rat model
SD rats = assay: 4-week repeated dose toxicity and toxicokinetic study in rats; settings: safety margin
TA98 strain = assay: Bacterial reverse mutation assay with 6-well plate, TA98

SMILES: CC(C)N(CCCCOCC(=O)NS(C)(=O)=O)c1cnc(-c2ccccc2)c(-c2ccccc2)n1
- EC50 (IP): 0.00027 µM
- EC50 (EP1): > 10 µM
- EC50 (EP2): 9.75 µM
- EC50 (EP3): > 10 µM
- EC50 (EP4): > 10 µM
- EC50 (DP): 2.74 µM
- EC50 (FP): > 10 µM
- EC50 (TP): > 10 µM
- IC50 [1]: 18.7 µM
- IC50 [2]: 24 µM
- reduction of right ventricular hypertrophy index ([3]; 1 mg/kg, compared with model control group): 26%
- effect on lung tissue lesions ([3]; HE staining, Compound A 0.15, 0.5, 1.5 mg/kg, Selexipag 1 mg/kg, twice daily 19 days): a certain improving effect
- RVSP ([3]; positive control 1 mg/kg oral gavage twice daily, 19 days): 43.16±2.66 mmHg
- Body Weight ([3]; positive control 1 mg/kg oral gavage twice daily, D1): 295.3 ± 19.2 g
- Body Weight ([3]; positive control 1 mg/kg oral gavage twice daily, D5): 333.5 ± 18.1 g
- Body Weight ([3]; positive control 1 mg/kg oral gavage twice daily, D8): 355.0±21.0* * g
- Body Weight ([3]; positive control 1 mg/kg oral gavage twice daily, D12): 376.7±25.0* ** g
- Body Weight ([3]; positive control 1 mg/kg oral gavage twice daily, D15): 383.5 ± 22.8 g
- Body Weight ([3]; positive control 1 mg/kg oral gavage twice daily, D19): 408.2±26.6* * g
- Body Weight ([3]; positive control 1 mg/kg oral gavage twice daily, D20): 418.9±28.2* * g
- maximum reduction of RVSP ([3]; positive control 1 mg/kg, compared with model control group): 33%
- Medial Thickness Percentage ([3]; pulmonary artery, positive control 1 mg/kg oral gavage twice daily, 19 days): 0.36±0.07 %
- RV/(LV+S) ([3]; right ventricular hypertrophy index, positive control 1 mg/kg oral gavage twice daily, 19 days): 33.85±8.32 %
- NOAEL in rats relative to pharmacologically effective dose (SD rats): 6 times
- Background lawn (TA98 strain; TA98+S9, 8 µg/well (Table 8)): T0
- Reverse mutation colony Mean (TA98 strain; TA98+S9, 8 µg/well (Table 8)): 11
- Reverse mutation colony Number per well (TA98 strain; TA98+S9, 8 µg/well (Table 8)): 12 and 10
- Background lawn (TA98 strain; TA98+S9, 16 µg/well (Table 8)): T0
- Reverse mutation colony Mean (TA98 strain; TA98+S9, 16 µg/well (Table 8)): 10
- Reverse mutation colony Number per well (TA98 strain; TA98+S9, 16 µg/well (Table 8)): 9 and 11
- Background lawn (TA98 strain; TA98+S9, 31 µg/well (Table 8)): T0
- Reverse mutation colony Mean (TA98 strain; TA98+S9, 31 µg/well (Table 8)): 9
- Reverse mutation colony Number per well (TA98 strain; TA98+S9, 31 µg/well (Table 8)): 8 and 10
- Background lawn (TA98 strain; TA98+S9, 63 µg/well (Table 8)): T0
- Reverse mutation colony Mean (TA98 strain; TA98+S9, 63 µg/well (Table 8)): 8.5
- Reverse mutation colony Number per well (TA98 strain; TA98+S9, 63 µg/well (Table 8)): 8 and 9
- Background lawn (TA98 strain; TA98+S9, 125 µg/well (Table 8)): T0
- Reverse mutation colony Mean (TA98 strain; TA98+S9, 125 µg/well (Table 8)): 6.5
- Reverse mutation colony Number per well (TA98 strain; TA98+S9, 125 µg/well (Table 8)): 7 and 6
- Background lawn (TA98 strain; TA98+S9, 250 µg/well (Table 8)): T1
- Reverse mutation colony Mean (TA98 strain; TA98+S9, 250 µg/well (Table 8)): 5.5
- Reverse mutation colony Number per well (TA98 strain; TA98+S9, 250 µg/well (Table 8)): 6 and 5
- Background lawn (TA98 strain; TA98+S9, 500 µg/well (Table 8)): T3
- Background lawn (TA98 strain; TA98+S9, 1000 µg/well (Table 8)): T4
- Background lawn (TA98 strain; TA98-S9, 8 µg/well (Table 8)): T0
- Reverse mutation colony Mean (TA98 strain; TA98-S9, 8 µg/well (Table 8)): 5.5
- Reverse mutation colony Number per well (TA98 strain; TA98-S9, 8 µg/well (Table 8)): 5 and 6
- Background lawn (TA98 strain; TA98-S9, 16 µg/well (Table 8)): T0
- Reverse mutation colony Mean (TA98 strain; TA98-S9, 16 µg/well (Table 8)): 4.5
- Reverse mutation colony Number per well (TA98 strain; TA98-S9, 16 µg/well (Table 8)): 4 and 5
- Background lawn (TA98 strain; TA98-S9, 31 µg/well (Table 8)): T0
- Reverse mutation colony Mean (TA98 strain; TA98-S9, 31 µg/well (Table 8)): 5.5
- Reverse mutation colony Number per well (TA98 strain; TA98-S9, 31 µg/well (Table 8)): 7 and 4
- Background lawn (TA98 strain; TA98-S9, 63 µg/well (Table 8)): T0
- Reverse mutation colony Mean (TA98 strain; TA98-S9, 63 µg/well (Table 8)): 5.5
- Reverse mutation colony Number per well (TA98 strain; TA98-S9, 63 µg/well (Table 8)): 6 and 5
- Background lawn (TA98 strain; TA98-S9, 125 µg/well (Table 8)): T0
- Reverse mutation colony Mean (TA98 strain; TA98-S9, 125 µg/well (Table 8)): 4.5
- Reverse mutation colony Number per well (TA98 strain; TA98-S9, 125 µg/well (Table 8)): 5 and 4
- Background lawn (TA98 strain; TA98-S9, 250 µg/well (Table 8)): T2
- Reverse mutation colony Mean (TA98 strain; TA98-S9, 250 µg/well (Table 8)): 2.5
- Reverse mutation colony Number per well (TA98 strain; TA98-S9, 250 µg/well (Table 8)): 3 and 2
- Background lawn (TA98 strain; TA98-S9, 500 µg/well (Table 8)): T3
- Background lawn (TA98 strain; TA98-S9, 1000 µg/well (Table 8)): T4
- final concentration at which a reduction in background lawn was observed (TA98 strain; TA98 strain, ±S9): not less than 250 µg per well
- final concentration at which non-interfering precipitate was observed (TA98 strain; TA98 strain, ±S9): not less than 250 µg per well
- genotoxicity test result (TA98 strain; TA98 strain, ±S9, colonies did not reach twice negative control): negative
